According to patent US11083717B2, “Compositions and methods for drug sensitization of parasites” (The Texas A&M University System, priority 2015, dated 2021):

Tests used:
human fibroblast = system: human fibroblast
From the text: (§1) These tests included an IL-12 mouse model test to determine compound efficacy, verification of MIC50 for CP, cytotoxicity test for fibroblasts and yeast to determine potential toxic effects, a Human ether-a-go-go-related gene (hERG) test to determine potential cardiotoxicity, an AMES test tp determine mutagenic potential, a Safety Screen 44 test to determine common negative off-target drug interastion (Eurofins Cerep, SA, France), a cytochrome P450 (CYP) test to determine potential liver toxicity, a maximum tolerated dose, test, a Pharmacokinetics (PK) test to determine fate of the substance administered to a living organism tests for plasma stability in human and mouse, to measure the degradation of compound in plasma MClint and HClint test to determine in vitro intrinsic clearance for Mouse and Human, and kinetic solubility and plasma protein binding tests in mouse and human.

S. cerevisiae = details: Saccharomyces cerevisiae
From the text: as §1

[1] = system: Cryptosporidium parvum (CP); assay: Cell culture model of Cryptosporidium parvum infection in HCT-8 cells, real-time qRT-PCR; assay type: cell-based
Procedure: Fresh oocysts of CP (Iowa strain) were purchased from Bunch Grass Farm (Deary, Id.). Oocysts were further purified by a Percoll-based gradient centrifugation method and surface sterilized with 10% bleach for 7 min on ice, followed by washes with phosphate-buffered saline (PBS). An ileocecal colorectal adenocarcinoma cell line (HCT-8, ATCC #CCL-244) was used to host the growth of CP in vitro. One day before the inoculation, HCT-8 cells were seeded in 96-well plates (2.5×10^4/well) containing RPMI 1640 medium supplied with 10% fetal bovine serum (200 μL medium/well in all experiments) and allowed to grow overnight at 37° C. under 5% CO2 atmosphere until they reached ˜90% confluence. For drug testing, host cells were infected with 1.5×10^4 oocysts per well (ratio ˜1:3). After inoculation, parasite oocysts were allowed to undergo excystation and invasion into host cells for 3 h at 37° C. Free parasites and oocyst walls in the medium were removed from the plates by an exchange of the culture medium. […]
The levels of 18S rRNA transcripts from CP and host cells (referred to as Cp18S and Hs18S) were detected by real-time qRT-PCR method using qScrip™ one-step SYBR green qRT-PCR kit (Quanta Biosciences, Gaithersburg, Md.). […]
The % inhibition (% inh @ (μM)) was calculated using a standard curve. […]

Compound	concentrations at which not toxic, human fibroblast cytotoxicity testing (human fibroblast) [µM]	concentrations at which not toxic, S. cerevisiae cytotoxicity testing (S. cerevisiae) [µM]	concentrations at which not toxic, human fibroblast cytotoxicity testing (human fibroblast; human) [µM]	inhibition at 10 µM ([1]; HCT-8, read-out: % inh @ (μM)) [%]	inhibition at 0.9 µM ([1]; HCT-8, @0.9 uM) [%]
O=C1NCCN1c1ccc(Oc2nc3ccc(Cl)cc3s2)cc1 [NZ-341, 1-{4-[(6-chloro-1,3-benzothiazol-2-yl)oxy]phenyl}imidazolidin-2-one]	≥ 100	–	–	–	–
CC(C)NC(=O)Nc1ccc(Oc2nc3ccc([N+](=O)[O-])cc3s2)cc1 [NZ-363, 1-{4-[(6-nitro-1,3-benzothiazol-2-yl)oxy]phenyl}-3-(propan-2-yl)urea]	≥ 100	≥ 100	–	–	–
CONC(=O)[C@@H](C)Oc1ccc(Oc2nc3ccc(Cl)cc3o2)cc1 [NZ-296, (2R)-2-{4-[(6-chloro-1,3-benzoxazol-2-yl)oxy]phenoxy}-N-methoxypropanamide]	–	≥ 100	≥ 100	–	–
CONC(=O)[C@@H](C)Oc1ccc(Oc2nc3ccc(F)cc3s2)cc1 [NZ-289, (2R)-2-{4-[(6-fluoro-1,3-benzothiazol-2-yl)oxy]phenoxy}-N-methoxypropanamide]	≥ 100	≥ 100	–	88	–
CC(C)NC(=O)Nc1ccc(Oc2cnc3cc(Cl)ccc3n2)cc1 [NZ-322, 1-{4-[(6-chloroquinoxalin-2-yl)oxy]phenyl}-3-(propan-2-yl)urea]	–	≥ 100	≥ 100	–	44
COC(=O)C(C)c1ccc(Oc2nc3ccc(Cl)cc3s2)cc1 (centres unmarked) [NZ-311, methyl 2-{4-[(6-chloro-1,3-benzothiazol-2-yl)oxy]phenyl}propanoate]	–	≥ 100	≥ 100	–	–
CNC(=O)Nc1ccc(Oc2cnc3cc(Cl)ccc3n2)cc1 [NZ-342, 1-{4-[(6-chloroquinoxalin-2-yl)oxy]phenyl}-3-methylurea]	–	–	≥ 100	–	–

Like-named read-outs stand apart in the source and are kept apart here.
